In patent US20260384421A1, “NOVEL COMPOUNDS THAT CAN BE USED AS THERAPEUTIC AGENTS” (published 2026):

Legend:
HCT-116 cells = experiment: alamarBlue proliferation assay with HCT-116 cells; conditions: read-out: Activity on HCT-116: IC50, McCoy's 5A medium, 10% FBS
BHY cells = experiment: alamarBlue proliferation assay with BHY cells; conditions: read-out: Activity on BHY: IC50, DMEM medium, 10% FBS
TANQUE cells = experiment: alamarBlue proliferation assay with TANQUE cells; conditions: read-out: Activity on TANOUE: IC50, RPMI 1640 medium, 10% FBS
MDA-MB-231 cells = experiment: alamarBlue proliferation assay with MDA-MB-231 cells (glucose-free Leibovitz's L-15 medium)
LL/2 cells = experiment: alamarBlue proliferation assay with LL/2 cells; conditions: read-out: Activity on LL/2: IC50; LL/2 murine Lewis lung carcinoma cells, DMEM medium, 10% FBS
A-549 cells = experiment: alamarBlue proliferation assay with A-549 cells; conditions: read-out: Activity on A-549: IC50, DMEM medium, 10% FBS
NB-4 cells = experiment: alamarBlue proliferation assay with NB-4 cells; conditions: read-out: Activity on NB-4: IC50, RPMI 1640 medium, 10% FBS
[1] = read-out: Activity (MDA), MDA-MB-231 cells, antiproliferative activity, class by IC50
[2] = read-out: Activity on MDA-MB-231 (IC50), glucose-free Leibovitz's L-15, 10% FBS, day 5, alamarBlue
[3] = read-out: Activity (MDA): antiproliferative activity on MDA-MB-231 cells, IC50 category, MDA-MB-231 cells cultivated in glucose-free Leibovitz's L-15 medium

IC50 (HCT-116 cells) [nM]	IC50 (MDA-MB-231 cells; [1]) [nM]	IC50 (MDA-MB-231 cells; [2]) [nM]	IC50 (A-549 cells) [nM]	IC50 (MDA-MB-231 cells; [3]) [nM]	Compound	IC50 (BHY cells) [nM]	IC50 (TANQUE cells) [nM]	IC50 (LL/2 cells) [nM]	IC50 (NB-4 cells) [nM]
≤ 200		≤ 200	≤ 200	< 1000	O=C(c1ccc(Oc2ccc(C3CCC4(CC3)OCCO4)cc2CO)cc1)N1CCN(Cc2ccc(O)cc2)CC1	≤ 200	≤ 200	≤ 5000	≤ 200
≤ 200		≤ 200	≤ 200	< 1000	O=C(c1ccc(Oc2ccc(C3CCC4(CC3)OCCO4)cc2CO)cc1)N1CCCN(Cc2ccc(Cl)cc2)CC1	≤ 200	≤ 200	≤ 200	≤ 200
≤ 1000		≤ 200	≤ 200	< 1000	O=C(c1ccc(Oc2ccc(C3CCC4(CC3)OCCO4)cc2CO)cc1)N1CCN(Cc2ccccc2Cl)CC1	≤ 1000	≤ 1000	≤ 5000	≤ 1000
≤ 200	< 1000	≤ 200	≤ 200		COc1ccc(CN2CCN(C(=O)c3ccc(Oc4ccc(C5CCCCC5)cc4CO)cn3)CC2)cc1	≤ 200	≤ 200	≤ 5000	≤ 200
≤ 200	< 1000	≤ 200	≤ 200		COc1ccc(CN2CCN(C(=O)c3ccc(Oc4ccc(C5CCC(OC)CC5)cc4CO)cn3)CC2)cc1 (stereo not drawn)	≤ 200	≤ 200	≤ 200	≤ 200
≤ 200	< 1000	≤ 200	≤ 200		COCC1(COC)CCC(c2ccc(Oc3ccc(C(=O)N4CCN(Cc5ccc(Cl)cc5)CC4)cc3)c(CO)c2)CC1	≤ 200	≤ 200	≤ 200	≤ 200
≤ 200		≤ 200	≤ 200	< 1000	O=C(c1ccc(Oc2ccc(C3CCC4(CC3)OCCO4)cc2CO)cc1)N1CCCN(Cc2ccc(C(F)(F)F)cc2)CC1	≤ 200	≤ 200	≤ 200	≤ 200
≤ 200		≤ 200	≤ 200	< 1000	O=C(c1ccc(Oc2ccc(C3CCC4(CC3)OCCO4)cc2CO)cc1)N1CCN(Cc2ccc3oc(=O)ccc3c2)CC1	≤ 200	≤ 200	≤ 1000	≤ 200
≤ 200	< 1000	≤ 200	≤ 200		O=C(c1ccc(Oc2ccc(C3CCCCC3)cc2CO)cc1)N1CCN(Cc2ccc(Cl)cc2)CC1	≤ 200	≤ 200	≤ 1000	≤ 200
≤ 200		≤ 200	≤ 200		O=C(c1ccc(Oc2ccc(C3CCC4(CCCO4)CC3)cc2CO)cc1)N1CCN(Cc2ccccc2)CC1 (stereo not drawn)	≤ 200	≤ 200	≤ 5000	≤ 200
≤ 200		≤ 200	≤ 200	< 1000	O=C(c1ccc(Oc2ccc(C3CCC4(CC3)OCCCO4)cc2CO)cc1)N1CCN(Cc2ccccc2)CC1	≤ 1000	≤ 1000	≤ 5000	≤ 1000
≤ 200	< 1000	≤ 200	≤ 200		COc1ccc(CN2CCN(C(=O)c3ccc(Oc4ccc(C5CCC6(CC5)SCCCS6)cc4CO)cn3)CC2)cc1	≤ 200	≤ 200	≤ 1000	≤ 200
≤ 200	< 1000	≤ 200	≤ 200		COc1ccc(CN2CCN(C(=O)c3ccc(Oc4ccc(C5CCCCC5)cc4CO)cc3)CC2)cc1	≤ 200	≤ 200	≤ 5000	≤ 200
≤ 200	< 1000	≤ 200	≤ 200		COC1CCC(c2ccc(Oc3ccc(C(=O)N4CCN(Cc5ccc(OC(F)(F)F)cc5)CC4)cc3)c(CO)c2)CC1 (stereo not drawn)	≤ 200	≤ 200	≤ 200	≤ 200

The next lines start with the compound.

Compound	IC50 (HCT-116 cells) [nM]	IC50 (MDA-MB-231 cells; [1]) [nM]	IC50 (MDA-MB-231 cells; [2]) [nM]	IC50 (A-549 cells) [nM]	IC50 (MDA-MB-231 cells; [3]) [nM]	IC50 (BHY cells) [nM]	IC50 (TANQUE cells) [nM]	IC50 (LL/2 cells) [nM]	IC50 (NB-4 cells) [nM]
COC1CCC(c2ccc(Oc3ccc(C(=O)N4CCN(Cc5ccc(C(F)(F)F)cn5)CC4)cc3)c(CO)c2)CC1 (stereo not drawn)	≤ 200	< 1000	≤ 200	≤ 200		≤ 200	≤ 200	≤ 200	≤ 200
COC1CCC(c2ccc(Oc3ccc(C(=O)N4CCN(Cc5ccccc5)CC4)nc3)c(CO)c2)CC1 (stereo not drawn)	≤ 200	< 1000	≤ 200	≤ 200		≤ 200	≤ 200	≤ 5000	≤ 200
Cn1c(CN2CCN(C(=O)c3ccc(Oc4ccc(C5CCC6(CC5)OCCO6)cc4CO)cc3)CC2)cc2ccccc21	≤ 200		≤ 200	≤ 200	< 1000	≤ 200	≤ 200	≤ 200	≤ 200
O=C(c1ccc(Oc2ccc(C3CCC4(CC3)OCCO4)cc2CO)cc1)N1CCN(Cc2ccoc2)CC1	≤ 1000		≤ 200	≤ 200	< 1000	≤ 1000	≤ 1000	≤ 5000	≤ 1000
O=C(c1ccc(Oc2ccc(C3CCC4(CC3)OCCO4)cc2CO)cc1)N1CCN(Cc2ccc(Cl)cn2)CC1	≤ 200		≤ 200	≤ 200	< 1000	≤ 200	≤ 200	≤ 1000	≤ 200
O=C(c1ccc(Oc2ccc(C3CCC4(CC3)OCCO4)cc2CO)cc1)N1CCN(Cc2ccc(C(F)(F)F)cn2)CC1	≤ 200		≤ 200	≤ 200	< 1000	≤ 200	≤ 200	≤ 200	≤ 200
O=C(c1ccc(Oc2ccc(C3CCC4(CC3)OCCO4)cc2CO)cc1)N1CCN(Cc2cccs2)CC1	≤ 200		≤ 200	≤ 200	< 1000	≤ 200	≤ 1000	≤ 5000	≤ 1000
O=C(c1ccc(Oc2ccc(C3CCC4(CC3)SCCS4)cc2CO)cn1)N1CCN(Cc2ccc(Cl)cc2)CC1	≤ 200	< 1000	≤ 200	≤ 200		≤ 200	≤ 200	≤ 1000	≤ 200
O=C(c1ccc(Oc2ccc(C3CCC4(CC3)OCCO4)cc2CO)cc1)N1CC2CN(Cc3ccc(Cl)cc3)CC2C1 (stereo not drawn)	≤ 200	< 1000	≤ 200	≤ 200		≤ 200	≤ 200	≤ 200	≤ 1000

Where two headings read alike, the source gives them in different places.
